The nature of series [1]: chemical stability in the aqueous solutions/buffer of the PAMPA experiments (UHPLC-DAD). The following applies: 4 h incubation at 37 °C. On the procedure: Quantities of the isolated compounds in the PAMPA experiments (14, 58, 74, 86, 92, 106, 141, and 143) were determined by UHPLC-DAD. The Juglans extracts were analyzed by an ACQUITY UPLC H-Class PLUS System equipped with a quaternary solvent delivery pump (QSM), an auto-sampler manager (FTN), a column compartment (CM), and a photodiode array (PDA) detector (Waters Corporation). An Acquity BEH C18 column (100 × 2.1 mm i.d., 1.7 µm; Waters Corporation) maintained at 30 °C was used as stationary phase. Eluent A was 0.3% acetic acid in water and eluent B was acetonitrile, the following gradient elution was applied (flow rate: 0.3 mL/min): 5.0–100.0% B (0.0–11.0 min), 100.0–5.0% B (11.0–11.5 min), 5% B (11.5–15.0 min). The injection volume was 5 µL and chromatograms were recorded at 200–400 nm. The chromatograms acquired at the UV absorption maxima of each compound were used for data evaluation.
Stock solutions (10 mM in methanol) were diluted with the defined buffer (pH 7.4 for the PAMPA-BBB and pH 6.8 for the PAMPA-GI assays) to obtain the donor solutions (composition: 594.0 μL buffer + 6.0 μL stock solution). […]
In general terms: In PAMPA a lipid-coated filter parts donor from acceptor wells.

Series [2] can be described thus: PAMPA-BBB (parallel artificial membrane permeability assay, porcine polar brain lipid extract). The series is classed as in vitro ADME. The note with it: donor pH 7.4, acceptor pH 7.4, 37 °C, 4 h; n.d. = not detected in the acceptor phase. As to the method: (§1) For the PAMPA-BBB test, 5 μL of porcine polar brain lipid extract (PBLE) solution (16.0 mg PBLE + 8.0 mg cholesterol dissolved in 600.0 μL n-dodecane) was applied for each well of the 96-well polycarbonate-based filter donor plates (top plate) (Multiscreen™-IP, MAIPN4510, pore size 0.45 μm; Merck). For the PAMPA-GI assay, the wells of the top plate were coated with 5 μL of the mixture of 16.0 mg phosphatidylcholine + 8.0 mg cholesterol dissolved in 600.0 μL n-dodecane. A measure of 150.0 μL of aliquots of the filtrated donor solutions were placed on the membrane. The 96-well PTFE acceptor plates (bottom plates) (Multiscreen Acceptor Plate, MSSACCEPTOR; Merck), were filled with 300.0 μL buffer solution (0.01 M PBS buffer, pH 7.4). The donor plate was placed upon the acceptor plate, and both plates were incubated together at 37 °C for 4 h in a Heidolph Titramax 1000 Vibrating platform shaker (Heidolph, Schwabach, Germany).
(§2) After incubation, sandwich plates were separated and the concentrations of each compound in the starting donor solution and in the acceptor and donor wells were determined in triplicate by UHPLC-DAD method described above. […]
(§3) All experiments were performed in three triplicates on three consecutive days (n = 9), caffeine standard was used as positive, while rutin as negative control. ClogP values were calculated by ChemAxon Marvin 22.3.

The nature of series [3]: PAMPA-GI (parallel artificial membrane permeability assay, phosphatidylcholine membrane). It is filed as in vitro ADME. The following applies: donor pH 6.8, acceptor pH 7.4, 37 °C, 4 h; n.d. = not detected in the acceptor phase. As to the method:
as §1, §2, §3

As to “myricetin-3-O-rhamnoside (myricitrin) [Compound 86]”, in series [1], the “degradation in the pH 7.4 buffer” value is “significant degree of degradation”. In addition, the “logPe PAMPA-BBB (n = 9)” value in series [2] is given as “not detected in the acceptor phase”. Besides, the “logPe PAMPA-GI (n = 9)” value in series [3] is “not detected in the acceptor phase”.

These data come from publication PMC11241769, “Comprehensive Characterization of Phytochemical Composition, Membrane Permeability, and Antiproliferative Activity of Juglans nigra Polyphenols” (International Journal of Molecular Sciences, 2024).
